# Ab-14 light chain CDR variants: yeast mating affinities

Source: Engelhart et al. 2022 (doi:10.1038/s41597-022-01779-4), MIT Lincoln Laboratory and A-Alpha Bio; data file from the FLAb repository.

All variants were tested on one target, the spike HR2 peptide PDVDLGDISGINAS (SARS-CoV-2).

Each scFv is VH, a (GGGGS)3 linker, VL, as in the parent Ab-14, and differs from it in the CDRs of the light chain only.
VH: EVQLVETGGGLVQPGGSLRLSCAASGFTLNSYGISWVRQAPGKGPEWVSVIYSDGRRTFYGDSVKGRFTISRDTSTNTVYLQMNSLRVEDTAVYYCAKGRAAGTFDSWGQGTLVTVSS
VL: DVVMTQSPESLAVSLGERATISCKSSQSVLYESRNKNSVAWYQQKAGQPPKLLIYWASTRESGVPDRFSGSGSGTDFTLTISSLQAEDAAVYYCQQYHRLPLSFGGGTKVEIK

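The parent was found by panning a naive human phage display library on the peptide. Variants in AAYL50 differ from the parent at up to three CDR positions; double and triple changes were sampled at random. The assay is AlphaSeq: two haploid yeast populations carry antibody and antigen on their surface. Binding brings cells together so that they mate, and sequencing counts the barcode pairs among the diploids. Read counts were normalised to the haploid input and turned into Kd by a linear fit to BCL2-family pairs of known affinity, for each replicate. Each pool was mated in three replicate cultures.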

The parent's light chain CDRs are KSSQSVLYESRNKNSVA, WASTRES, QQYHRLPLS; each variant's own CDRs replace them letter for letter.
All variants listed here change V29 of the VL, counted from its first residue.
Each Kd is an estimate from the mating assay, the geometric mean of the replicates in which the pair was seen; lower is stronger.
A pair that was not seen in any replicate is written "nd"; this usually means weak binding, but a binder can also be missed.
Parent in this assay: reference entry 4.4 nM, copy in this library 48 nM.
Nonspecific signal, from three strains lacking the peptide, appeared in 18% of pairings of library AAYL50, centred on 15 µM (5% of these signals below 970 nM); values are not corrected for it.

CDR-L1	CDR-L2	CDR-L3	Kd	seen in
KSSQSELYESRNKNSVA	WHSTRES	QQYHRLMLS	nd	0/3
KSSQSSLYESRNKNAVA	WASTRES	QQYHRLPNS	nd	0/3
KKSQSCLYESRNKNSVA	WASTRES	QQYERLPLS	15 nM	3/3
KSSQSELYESRNKNSVA	DASTREM	QQYHRLPLS	1.1 µM	1/3
KSSQSDLYELRNKNSVA	WNSTRES	QQYHRLPLS	20 µM	2/3
KSDQSKLYESRNKNSVA	WASTRES	QQYHRLWLS	nd	0/3
KSSQSTLYESRNKNSVA	WASTRES	QRYHRLPLP	31 nM	3/3
KSSQSYLYESRNKRSVA	WASTRES	QQYHRLPTS	nd	0/3
KISQSCLYESRTKNSVA	WASTRES	QQYHRLPLS	nd	0/3
KSSQSPLYESRNKNSNA	LASTRES	QQYHRLPLS	1.4 µM	1/3
KSSQSCQYESRNKNSVA	WANTRES	QQYHRLPLS	13 nM	3/3
KSSESNLYESRNKNSVA	WASTRES	QAYHRLPLS	20 nM	3/3
KSSQSYLYESRNKNSVA	WASTRES	QQHHRLPLS	12 nM	3/3
KSSQSCLYESRWKNSVA	WASTRES	QQYHRLPKS	100 µM	1/3
KSSQSYLYESRNKNSVA	WASTRES	QQYHRLPLS	8.2 nM	3/3
KSSQSDLYQSRNKNSVA	WASTRES	QQYHRLTLS	7.8 nM	3/3
KSSQSDLYESRNKNSVA	WASTRES	QQYGRGPLS	95 nM	3/3
KSSQSPLYESRNKNSVA	WASTRES	QQYHIWPLS	nd	0/3
KSSQSKLYESRRKNSVA	WASTRES	DQYHRLPLS	nd	0/3
KSSQSHLYESRNKNSVA	WAVTREP	QQYHRLPLS	nd	0/3
KSSQSGLWESRNKNSVA	WKSTRES	QQYHRLPLS	22 nM	3/3
KSSQSNLYESWNKNSSA	WASTRES	QQYHRLPLS	27 µM	1/3
KSSNSYLYESRNKNSVA	WASTGES	QQYHRLPLS	15 µM	1/3
KSSQSWLYESRNKNSVA	WAGTRES	QQYHLLPLS	21 nM	3/3
PSSQSMLPESRNKNSVA	WASTRES	QQYHRLPLS	14 µM	1/3
KSSQSYLYESRNKNMVA	WASTRGS	QQYHRLPLS	nd	0/3
KSTQSPSYESRNKNSVA	WASTRES	QQYHRLPLS	18 nM	3/3
KSSQSQLYESRNKNSVA	WASTRES	QQYHRLPLS	5.3 nM	3/3
KSSQSCLLESRNKNSVA	WASTRES	QQYYRLPLS	6.3 nM	3/3
KSSQSRLYESRNKNSVA	WASPRES	QQYHRLPLS	nd	0/3
KSSQSGLYESRNKNSVA	WASTRES	QQQHPLPLS	nd	0/3
KSSESKLYESRNKNSVA	WASDRES	QQYHRLPLS	140 nM	3/3
KSSQSQLYESYNKNSVA	WRSTRES	QQYHRLPLS	14 nM	3/3
KSSQPQLYESRNKNSVA	WASTRES	QQYHRLPLS	1.1 µM	1/3
KFSQSRLYESRNKNSVA	WASTRES	QQYHRLDLS	17 µM	1/3
KSSQSRLYESRNKNSVA	WASTRES	CTYHRLPLS	3.0 nM	3/3
KSSQEPLYESRNKASVA	WASTRES	QQYHRLPLS	21 nM	3/3
KSSQSPLYESRVKNSVA	WASTRES	QQYHRLPLS	37 nM	3/3
KSSQKELYELRNKNSVA	WASTRES	QQYHRLPLS	19 nM	3/3
KSSQSLLYESRWKNSVA	WASTRES	QQYHRLPFS	5.6 nM	3/3
KSSQSPLYESRNKNSVK	WASTRES	QQYHRLPLS	16 µM	1/3
KSSQSILYESRNKNSVA	WASTRES	QNYHRLPLS	200 nM	3/3
KSSQSHLKESRNKASVA	WASTRES	QQYHRLPLS	1.3 µM	3/3
KSSQSNLYESRNKNSVA	WASTRKS	QQYHDLPLS	1.5 µM	3/3
VSSQSKLYESRNKNSVA	WASTRES	QQYHRLFLS	410 nM	1/3
KSSQSGLYESRNKNSVT	WASTRES	QVYHRLPLS	16 µM	1/3
KSSQSGLYESRNKNQNA	WASTRES	QQYHRLPLS	nd	0/3
KSSQSSLYESRNKNSMA	WASTRES	QQYHRPPLS	nd	0/3
KSSQSPLYEARNKNSVA	WASTRES	QQYHRLPLS	4.7 nM	3/3
KSSQSNLYESRKKNIVA	WASTRES	QQYHRLPLS	12 µM	1/3
KSSQSHLYESRNKNSVA	WASARES	QQYHRLPLS	110 nM	3/3
KSSQSCLYESRNKNSVA	WASTRES	QQRHRLPLC	nd	0/3
KSGQSPLYESRNKNSVA	WASTRES	QQNHRLPLS	nd	0/3
KSSQSNLYESRNKNWVA	WASTRES	QQYHRLPLS	490 nM	1/3
KSSQSFLYESRNKNSVA	WADTRES	QQYHRHPLS	48 nM	3/3
KSSQSCLYESRNKNSVA	WASTRES	QQYHRLPNC	nd	0/3
KSSQSILYEGRNKNSVA	WASTRES	QQYHRLPLK	nd	0/3
VSSQSQLYESRNKNSVA	WASTRES	QQRHRLPLS	16 µM	2/3
KSSQSPLYEPRNKNYVA	WASTRES	QQYHRLPLS	670 nM	2/3
KSSQSELYESPNKNSVA	WASTREM	QQYHRLPLS	1.5 nM	3/3
KSSQSTLYESRNKNSVA	WASTRES	QQYHRLPLS	6.6 nM	3/3
KSSQSMLYESRNKNSVA	WASYRES	QQYHRFPLS	150 nM	3/3
KSSQSYLPESRNKNSVA	WASTRES	QQYHRLPLL	66 nM	3/3
KSYQSALYESRNKNSVA	WARTRES	QQYHRLPLS	1.2 µM	3/3
KSSQSTLYELRNKNSVA	WASTRES	QQYHRLFLS	29 µM	2/3
KSSQSYLYESRNKPSVA	WASTREP	QQYHRLPLS	180 nM	3/3
KSSQSYLYKSRNKNSVA	WASTRES	QQYHRLPLS	1.8 µM	3/3
KSSQSYLYESRNKNSVA	WAKTRES	QQYHRLRLS	nd	0/3
KSSQSGLYESRNKNSVA	WDSTRES	QQYHRLPLS	2.4 µM	2/3
KQSQSDLYQSRNKNSVA	WASTRES	QQYHRLPLS	8.5 nM	3/3
KSMHSNLYESRNKNSVA	WASTRES	QQYHRLPLS	29 nM	3/3
KSSQSELYESRNKNSVA	WRSTRES	QGYHRLPLS	12 µM	2/3
KSPQSFLYESRNKNSVA	WASTRES	QTYHRLPLS	2.1 nM	3/3

The last 5 entries again:

CDR-L1	CDR-L2	CDR-L3	Kd	seen in
KSSQSGLYESRNKNSVA	WDSTRES	QQYHRLPLS	2.4 µM	2/3
KQSQSDLYQSRNKNSVA	WASTRES	QQYHRLPLS	8.5 nM	3/3
KSMHSNLYESRNKNSVA	WASTRES	QQYHRLPLS	29 nM	3/3
KSSQSELYESRNKNSVA	WRSTRES	QGYHRLPLS	12 µM	2/3
KSPQSFLYESRNKNSVA	WASTRES	QTYHRLPLS	2.1 nM	3/3